Source: US7135457B1, “Random peptides that bind to gastro-intestinal tract (GIT) transport receptors and related methods” (Cytogen Corporation, priority 1997, dated 2006)

Details: text summary of hSI, D2H, HPT1, hPEPT1 pools
Method: In particular, phages selected in vitro to each receptor or binding site located in the GIT were amplified in E. coli, PEG-precipitated, resuspended in TBS and the titer of each phage sample was determined by plaquing in E. coli as described above. […] Using the in situ loop model described above, 0.5 ml of preselected phage library solution was injected into the tied-off portion of the duodenum/jejunum. Blood was collected into heparinized tubes from the portal vein at 0, 15, 30, 45 and 60 minutes. A blood sample was taken from the systemic circulation at the end of the experiment. Similarly, the portion of the duodenum/jejunum used for phage injection was taken at the end of the experiment.
Thirty microliters of the collected portal blood (neat and 10^−2, 10^−4, 10^−6 dilutions) was added to 30 μl E. coli K91Kan cells (overnight culture) and incubated at 37° C. for 10 min. Subsequently, 3 ml of top agarose was added and the samples were plated for plaques. One hundred microliters of the collected portal blood was added to 100 μl of E. coli K91Kan. Five milliliters of LB medium was then added and the samples were incubated at 37° C. overnight in a rotating microbial incubator. The E. coli was removed by centrifugation and the amplified phage supernatant samples were either titered directly or were PEG-precipitated, resuspended in TBS and titered. Following titration of the amplified phage, samples containing phage from each set of animals were combined, adjusting the titer of each sample to the same titer, and were plated for plaques on LB agar plates (22 cm^2 square plates). Either 12,000 or 24,000 phage were plated for plaques.
Thirty microliters of the collected systemic blood (neat and 10^−2, 10^−4, 10^−6 dilutions) was added to E. coli K91Kan cells, incubated at 37° C. for 10 min. Three ml of top agarose was then added and the samples were plated for plaques. One hundred microliters of the collected systemic blood was added to 100 μl of E. coli K91Kan, incubated at 37° C. for 10 min. Five milliliters of LB medium was then added and the samples were incubated at 37° C. overnight in a rotating microbial incubator. The E. coli was removed by centrifugation and the amplified phage supernatant samples were either titered directly or were PEG-precipitated, resuspended in TBS and titered. Following titration of the amplified phage, samples containing phage from each set of animals were combined, adjusting the titer of each sample to the same titer, and were plated for plaques on LB agar plates (22 cm^2 square plates). Either 12,000 or 24,000 phage were plated for plaques. The intestinal tissue portion used in each closed loop was excised. […] Alternatively, the tissue (in PBS supplemented with protease inhibitors) was homogenized in an Ultra Thorex homogenizer, washed 3 times in PBS containing protease inhibitors and resuspended in PBS containing protease inhibitors (Int-G samples). In each case, serial dilutions (neat and 10^−2, 10^−4, 10^−6 dilutions) of the tissue homogenate was titered in E. coli.
The phage amplified from the portal blood, systemic blood and intestinal tissue was plated for plaques. […] The filters were air-dried, and the DNA was cross-linked to the filter (UV crosslinking: 2 min, high setting). The filters were incubated in pre-hybridization buffer (6×SSC, 5×Denhardt's solution, 0.1% SDS, 20 μg/ml yeast tRNA) at 40° C.-45° C. for at least 60 min.
Synthetic oligonucleotides, (22-mers), complimentary to regions coding for the receptor or binding sites used to create the preselected phage library, were synthesized (see Table 14 below).
The oligonucleotides (5 pmol) were 5′ end labelled with ^32P-ATP and T4 polynucleotide kinase and approximately 2.5 pmol of labelled oligonucleotide was used in hybridization studies. […] The filters were air-dried and exposed for autoradiography for 15 hours, 24 hours or 72 hours.
Hybridization data for pools from each receptor group of rats was compiled.

**Q.** For “SGGEVSSWGRVNDLCARVSWTGCGTARSARTDNKGFLPKHSSLR [Phage SNi45]”, which “transport from the GIT closed loop into the portal circulation (in words)” value (“transport” for short) is on record?
**A.** not transported

**Q.** With “RGAADQRRGWSENLGLPRVGWDAIAHNSYTFTSRRPRPP [Phage SNi38]” as the sequence, how does the “transport” value read?
**A.** transported

**Q.** For “RTTTAKGCLLGSFGVLSGCSFTPTSPPPHLGYPPHSVN [Phage SNiAX6]”, which “transport” value is on record?
**A.** not transported

**Q.** Which “transport” value does the source give for “SHSGGMNRAYGDVFRELRDRWNATSHHTRPTPQLPRGPN [Phage SNi28]” here?
**A.** not transported

**Q.** For “SDSDGDHYGLRGGVRCSLRDRGCGLALSTVHAGPPSFYPKLSSP [Phage SNiAX2]”, which “transport” value is on record?
**A.** not transported

**Q.** For “RVGQCTDSDVRRPWARSCAHQGCGAGTRNSHGCITRPLRQASAH [Phage SNi10]”, which “transport” value is on record?
**A.** transported

**Q.** Which “transport” value does the source give for “SPKLSSVGVMTKVTELPTEGPNAISIPISATLGPRNPLR [Phage SNiAX8]” here?
**A.** not transported

**Q.** With “SPCGGSWGRFMQGGLFGGRTDGCGAHRNRTSASLEPPSSDY [Phage SNi34]” as the sequence, how does the “transport” value read?
**A.** transported

Same assay, conditions: text summary of the four pools

**Q.** For “RVGQCTDSDVRRPWARSCAHQGCGAGTRNSHGCITRPLRQASAH [Phage SNi10]”, which “presence in the intestine samples or fractions (in words)” value is on record?
**A.** found in the intestine samples or fractions
